Consider two substances from patent US20240335558A1, “ISOLATED POLYPEPTIDE AND USE THEREOF” (GLYCO-THERAPY BIOTECHNOLOGY CO., LTD., priority 2021, published 2024).

The subject of one test is SK-Br-3 (Her2+) cells. The experiment in a line: In vitro efficacy, CellTiter-Glo Luminescent Cell Viability Assay on SK-Br-3. The test is classed as cell-based. Conditions: 0.001-100 nM, 72 h incubation; FIG. 13. How it is done:
(§1) SK-Br-3 (Her2+) cells were cultured in RPMI 1640 medium (Gibco) supplemented with 10% FBS (Gibco). MDA-MB-231 (Her2−) cells were cultured in DMEM (Gibco) supplemented with 10% FBS (Gibco). The two types of cells in good culture condition were respectively plated in 96-well plates with 5000 cells per well and then incubated for 24 h in a constant-temperature cell incubator at 37° C. and 5% CO2. After the culture, the culture medium was removed from the 96-well plates, and 200 pL fresh culture medium with drug (Trastuzumab, Trastuzumab-G2F-FAmSucMMAE, or Trastuzumab-G2F-FAmP4Tz-TCO-MMAE) (final concentrations were 100 nM, 10 nM, 1 nM, 0.05 nM, 0.1 nM, 0.05 nM, 0.01 nM, 0.001 nM and 0 nM respectively) was then added to the plates. After the sample loading, the cells in the 96-well plates were further incubated for 72 h in the constant-temperature cell incubator. After the incubation, the cells were subjected to a CellTiter-Glo® Luminescent Cell Viability Assay (Promega) to measure the killing effect of the drug to be tested on SK-Br-3 and MDA-MB-231.

Another test relates to MDA-MB-231 (Her2−) cells. The experiment in a line: In vitro efficacy, CellTiter-Glo Luminescent Cell Viability Assay on MDA-MB-231. The test is classed as cell-based. Conditions: 0.001-100 nM, 72 h incubation; FIG. 13. As for the experimental part:
as §1

Consider “Trastuzumab-G2F-FAmP4Tz-TCO-MMAE: antibody conjugate from Trastuzumab-G2F-FAmP4Tz and TCO-PEG4-vc-PAB-MMAE, DAR 4”, for which, in the test on SK-Br-3 (Her2+) cells, the “killing effect on SK-Br-3 (Her2+) cells” value is “strong killing effect”. Further, the “killing effect on MDA-MB-231 (Her2−) cells” value in the test with MDA-MB-231 (Her2−) cells is listed as “no obvious killing effect”.
Taken in the same sequence, the figures for “Trastuzumab-G2F-FAmSucMMAE: antibody conjugate from Trastuzumab-G2F and GDP-FAmSucMMAE using HpFT-2HR, MAR 4” were “strong killing effect” and “no obvious killing effect”.
